Values of other authors as cited in patent US8318707B2 (priority 2006, dated 2012).

Experiments:
cdk-1/cyclin B = details: De Azevedo et al. 1997; Bach et al.; cited from earlier work
cdc2/cyclin B = details: De Azevedo et al. 1997; Bach et al.; cited from earlier work

CC[C@@H](CO)Nc1nc(NCc2ccccc2)c2ncn(C(C)C)c2n1 [(S)-roscovitine]
inhibitory activity compared with (R)-roscovitine (cdk-1/cyclin B): lower than that of (R)-roscovitine | inhibitory activity compared with (R)-roscovitine (cdc2/cyclin B): lower than that of (R)-roscovitine
